## Antibody variant affinities, Ab-91 heavy chain, assay 2

Source: Engelhart et al. 2022 (doi:10.1038/s41597-022-01779-4), MIT Lincoln Laboratory and A-Alpha Bio; data file from the FLAb repository.

All variants were tested on one target, the spike HR2 peptide PDVDLGDISGINAS (SARS-CoV-2).

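Phage display of a naive human antibody library on the peptide gave the parent. AAYL51 was designed without a model: most single CDR substitutions and a random sample of double and triple ones. Affinity was read by AlphaSeq, a pooled yeast mating assay with surface-displayed partners. Binding brings cells together so that they mate, and sequencing counts the barcode pairs among the diploids. Read counts were normalised to the haploid input and turned into Kd by a linear fit to BCL2-family pairs of known affinity, for each replicate. Each pool was mated in three replicate cultures.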

The variants keep the light chain, the linker and the frameworks of Ab-91 (scFv order VL, the linker GGGGSGGGGSGGGGS, VH).
VL: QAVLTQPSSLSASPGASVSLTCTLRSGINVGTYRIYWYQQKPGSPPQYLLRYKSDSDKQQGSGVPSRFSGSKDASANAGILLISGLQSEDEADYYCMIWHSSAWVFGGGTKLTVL
VH: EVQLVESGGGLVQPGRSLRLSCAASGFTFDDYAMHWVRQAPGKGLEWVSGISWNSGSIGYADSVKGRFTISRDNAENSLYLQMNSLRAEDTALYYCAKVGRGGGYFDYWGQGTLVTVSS

Substitutions are numbered in sequence along the VH above, starting at 1 (not Kabat). The Kd shown is the geometric mean over detected replicates; a lower Kd is a better binder. "nd" means that the variant was in the library but no mating with the target was seen in any replicate; the authors take this as a sign of poor binding, and no number exists. Parent in this assay: reference entry 72 nM, copy in this library 7.5 nM. Empty control strains, which show no peptide, gave a signal in 21% of pairings with library AAYL51; the median was 34 µM and 95% of these signals were weaker than 1.8 µM. No background was subtracted. For each scFv, signals with the empty controls are counted beside the result.

With S57H/I58A the result was 610 nM (1 of 3 replicates; controls 0 of 9).
With D31M/W53R/V64S the result was 46 µM (1 of 3 replicates; controls 1 of 9).
With V64H/G102D/G104W the result was 32 µM (2 of 3 replicates; controls 1 of 9).
With F27S/D31N/S57P the result was 24 µM (1 of 3 replicates; controls 2 of 9).
With D31M/H35I/K65C the result was nd (0 of 3 replicates; controls 3 of 9).
With S52R/K65R/G102S the result was 50 µM (2 of 3 replicates; controls 7 of 9).
With D31V/S55T/D62V the result was 2.6 µM (1 of 3 replicates; controls 1 of 9).
With D31K/W53Q/G102C the result was 10 µM (3 of 3 replicates; controls 1 of 9).
With F27Y/A33H/H35K the result was 53 µM (3 of 3 replicates; controls 7 of 9).
With F27L/S52Q/F106P the result was nd (0 of 3 replicates; controls 1 of 9).
With H35P/S52I/W53K the result was 100 µM (2 of 3 replicates; controls 5 of 9).
With Y32Q/W53R/Y60S the result was nd (0 of 3 replicates; controls 2 of 9).
With H35D/V64K/R101I the result was nd (0 of 3 replicates; controls 0 of 9).
With Y32Q/H35V the result was nd (0 of 3 replicates; controls 2 of 9).
With V99H/R101G/G103H the result was 59 µM (1 of 3 replicates; controls 5 of 9).
With T28R/M34C/G59I the result was nd (0 of 3 replicates; controls 1 of 9).
With D30C/S57F/S63F the result was 39 µM (1 of 3 replicates; controls 0 of 9).
With D31P/S52Q/N54P the result was 73 µM (2 of 3 replicates; controls 3 of 9).
With D30Y/G56H/G104F the result was 120 µM (1 of 3 replicates; controls 2 of 9).
With S55G/I58V/D107A the result was nd (0 of 3 replicates; controls 2 of 9).
With S57C/V64K the result was nd (0 of 3 replicates; controls 0 of 9).
With M34W/D62F/G104K the result was nd (0 of 3 replicates; controls 0 of 9).
With D30W/G102V/F106A the result was 780 nM (3 of 3 replicates; controls 7 of 9).
With T28I/Y32S/I51N the result was 33 µM (3 of 3 replicates; controls 3 of 9).
With F27P/W53S/V64G the result was 720 nM (2 of 3 replicates; controls 0 of 9).
With A33G/S52C/D62P the result was 230 µM (1 of 3 replicates; controls 1 of 9).
With D31T/H35C/G50Q the result was nd (0 of 3 replicates; controls 3 of 9).
With S57D/V99G/R101P the result was 16 µM (2 of 3 replicates; controls 1 of 9).
With Y32M/N54L/Y60V the result was 17 µM (1 of 3 replicates; controls 1 of 9).
With F29N/W53N/S55Q the result was nd (0 of 3 replicates; controls 0 of 9).
With M34K/S52R/K65H the result was 430 µM (1 of 3 replicates; controls 1 of 9).
With N54M/Y60S/F106R the result was 22 µM (2 of 3 replicates; controls 2 of 9).
With A61E/K65S the result was 1.5 µM (3 of 3 replicates; controls 0 of 9).
With F29S/I51T/G102I the result was 17 µM (1 of 3 replicates; controls 4 of 9).
With S57P/G102A/G103Q the result was nd (0 of 3 replicates; controls 2 of 9).

Extract of 5 entries:

changes	Kd (apparent)	seen in	empty controls
S57C/V64K	nd	0 of 3	0 of 9
S55G/I58V/D107A	nd	0 of 3	2 of 9
Y32Q/H35V	nd	0 of 3	2 of 9
D30C/S57F/S63F	39 µM	1 of 3	0 of 9
D31M/W53R/V64S	46 µM	1 of 3	1 of 9